Antibody variant affinities, Ab-14 light chain, assay 1

Source: Engelhart et al. 2022 (doi:10.1038/s41597-022-01779-4), MIT Lincoln Laboratory and A-Alpha Bio; data file from the FLAb repository.

Target peptide (SARS-CoV-2 spike, HR2 region): PDVDLGDISGINAS

Ab-14 is the parent antibody, in scFv form: VH, then the linker GGGGSGGGGSGGGGS, then VL. The heavy chain is unchanged in all variants.
VH: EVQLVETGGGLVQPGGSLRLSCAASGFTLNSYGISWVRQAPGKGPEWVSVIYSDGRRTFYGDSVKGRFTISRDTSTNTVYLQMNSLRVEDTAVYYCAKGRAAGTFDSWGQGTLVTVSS
VL: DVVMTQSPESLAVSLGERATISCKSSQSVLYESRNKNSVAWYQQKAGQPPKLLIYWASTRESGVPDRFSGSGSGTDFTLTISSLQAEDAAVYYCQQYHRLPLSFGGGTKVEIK

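The parent was found by panning a naive human phage display library on the peptide. The library (AAYL50) carries one to three amino acid substitutions per variant, with no insertions or deletions. The scFvs were displayed on barcoded MATa yeast, the peptide on MATalpha yeast. After mating in shaken culture at 30 °C for 16 h, diploids were selected and their barcode pairs sequenced. Scores were corrected for input abundance and mapped to Kd with protein pairs of known affinity run in the same pool. The assay was run in three technical replicates.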

Variants are written as CDR1, CDR2 and CDR3 of the light chain (limits as in the source). Parent: KSSQSVLYESRNKNSVA, WASTRES, QQYHRLPLS. Numbers give log10(Kd / nM), so 0 is 1 nM and 3 is 1 µM. Smaller is tighter. An entry "ND" has no value in the source: the pair was not observed among the diploids in that replicate. This suggests poor binding but is not conclusive.

| CDR-L1 | CDR-L2 | CDR-L3 | log10 Kd, replicates | signal with controls |
|---|---|---|---|---|
| KSSQSVLVESRNKNHVA | AASTRES | QQYHRLPLS | 0.59 0.77 0.67 | 3/9 (4.22) |
| KSSVSVLYESRNKNSVA | WAYTRES | QQYHTLPLS | 2.16 2.11 2.18 | 0/9 |
| KSSQSHLYESRNKNSVA | WASTREQ | QQYHRLPLS | 1.24 0.93 1.54 | 0/9 |
| KSSQSNLYESRNKNSVA | WASTVES | QQYHRLPES | ND ND ND | 3/9 (4.84) |
| KSSQEVLYESRNKNSVA | WASTRES | FQYHRLPLS | ND ND ND | 1/9 (3.01) |
| QSSLSVFYESRNKNSVA | WASTRES | QQYHRLPLS | 1.15 1.29 1.33 | 1/9 (5.94) |
| KSSQSVLYESRGKNSVA | NASMRES | QQYHRLPLS | ND ND ND | 2/9 (3.38) |
| KSSQSVLYESRNKNSVA | WYSTRES | SQEHRLPLS | ND ND ND | 1/9 (3.23) |
| KSSQSVLYESRNKNSVA | TASTRES | PQYHRLPIS | 1.28 1.33 1.29 | 2/9 (4.27) |
| WSSQSVLYESRGKNSVA | WASTRES | EQYHRLPLS | ND 4.60 2.72 | 4/9 (3.85) |
| ISSQSVLYESRNKNSVA | WASTREM | SQYHRLPLS | ND ND ND | 0/9 |
| KSSQSVLAESRNKNLVA | WASTRQS | QQYHRLPLS | ND ND ND | 1/9 (3.17) |
| KSSQSVLYESMNKQSVA | WASTRES | QQYHVLPLS | 1.70 1.54 1.87 | 3/9 (3.78) |
| KSCQTVLYESRNKNSDA | WASTRES | QQYHRLPLS | 3.59 ND 6.21 | 2/9 (4.05) |
| KSSQSVLYESRNTNSVA | WASTSES | QQYHRGPLS | 4.56 ND 4.74 | 2/9 (5.02) |
| KSRQSVLYESRNKNSGA | WASTFES | QQYHRLPLS | ND ND ND | 1/9 (3.50) |
| KRSVSVLYERRNKNSVA | WASTRES | QQYHRLPLS | ND ND 4.82 | 2/9 (3.86) |
| LSSQSVLYESRNKVSVA | WASTRES | QQYHTLPLS | ND 3.98 ND | 0/9 |
| KSSQGVLYESRNSNSVL | WASTRES | QQYHRLPLS | ND 4.17 5.56 | 6/9 (4.65) |
| KCSQSVLYESRNKNSVA | WASTRES | QQYWRLPGS | 4.90 ND 4.83 | 2/9 (4.09) |
| KSSSSVLYESRNKNSVA | WASTREY | QQYHRLPSS | ND ND ND | 1/9 (2.71) |
| KSQASVLYRSRNKNSVA | WASTRES | QQYHRLPLS | 1.52 1.48 ND | 0/9 |
| KSSQSVNYESRNKNSVA | WASTRES | QQYHALSLS | 1.23 1.26 1.37 | 3/9 (4.90) |
| KSSQSVLSESRNKNSVA | WCSTRES | QQYHRLPPS | ND ND ND | 0/9 |
| LSSQSVLYESRNKNSVA | KASTRES | QQYHRLPNS | 0.08 0.80 0.84 | 0/9 |
| KSSQSVLYESRNKNSVW | MASTRES | QQYHRLPLK | ND ND ND | 0/9 |
| VSSQSVLYESRNKNSVA | WCSTRES | QQYHRLPLS | 3.89 4.70 ND | 1/9 (3.77) |
| KESQSVLYESRNKNSVG | WASTRES | QQYLRLPLS | ND ND ND | 0/9 |
| KSSQSVLYESRNKNSVA | WALTRES | QQYHRGPLN | ND ND ND | 0/9 |
| KSSESVLKESRNKNSVA | WASQRES | QQYHRLPLS | 1.14 1.12 1.18 | 3/9 (4.05) |
| KASQSVSYESRNKNSVA | SASTRES | QQYHRLPLS | -0.04 0.32 0.09 | 0/9 |
| KSSQGVLYESRNCTSVA | WASTRES | QQYHRLPLS | ND ND ND | 0/9 |
| KSSQSMNYESRNKNSVA | WASTRES | QQMHRLPLS | 3.23 ND ND | 2/9 (4.28) |
| KCSQSVLYESRNKNSVE | WASTRES | QQSHRLPLS | ND 3.85 ND | 0/9 |
| KSSQSVLYESRNENSVA | WASTREV | QQYHRLPLS | 0.26 0.56 0.46 | 0/9 |

A selection of 2 entries from above:

{"CDR-L1": "KSCQTVLYESRNKNSDA", "CDR-L2": "WASTRES", "CDR-L3": "QQYHRLPLS", "log10 Kd, replicates": "3.59 ND 6.21", "signal with controls": "2/9 (4.05)"}
{"CDR-L1": "KSSQSVLYESRNKNSVA", "CDR-L2": "TASTRES", "CDR-L3": "PQYHRLPIS", "log10 Kd, replicates": "1.28 1.33 1.29", "signal with controls": "2/9 (4.27)"}

Nonspecific signal, from three strains lacking the peptide, appeared in 18% of pairings of library AAYL50, centred on 4.19 (5% of these signals below 2.99); values are not corrected for it. The control count says in how many pairings with the empty strains this scFv gave a signal, with their mean in brackets.